Test results published in patent publication EP1310247A1 (priority 1997, dated 1999).

Test system: Sprague Dawley rats
Experiment: Nasal airway pressure / resistance in anesthetized rats, normal and histamine-challenged
Type: in vivo
Details: non-histamine-challenged rats; 100% dose

CN[C@H](C)[C@@H](O)c1ccccc1 [(+)-ephedrine]
reduction in airway passage resistance compared with (-)-ephedrine: significantly greater reduction in airway passage resistance
